## Yeast mating assay B: variants of the scFv Ab-14

Source: Li et al. 2023 (doi:10.1038/s41467-023-39022-2), MIT Lincoln Laboratory and A-Alpha Bio; data file from the FLAb repository.

Binding partner: SARS-CoV-2 spike HR2 peptide, sequence PDVDLGDISGINAS.

The variants keep the light chain, the linker and the frameworks of Ab-14 (scFv order VH, a 15-residue (Gly4Ser)3 linker, VL).
VH: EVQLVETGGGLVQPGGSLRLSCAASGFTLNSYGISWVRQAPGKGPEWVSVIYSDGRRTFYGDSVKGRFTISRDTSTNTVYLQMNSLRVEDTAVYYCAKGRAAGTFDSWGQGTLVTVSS
VL: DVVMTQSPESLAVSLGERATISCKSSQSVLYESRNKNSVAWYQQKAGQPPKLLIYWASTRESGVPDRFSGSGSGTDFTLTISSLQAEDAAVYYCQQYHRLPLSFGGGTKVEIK

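The parent was found by panning a naive human phage display library on the peptide. These sequences belong to a second round, designed from the earlier measurements on random variants of the parent. Several design methods are mixed in this list. AlphaSeq pools MATa yeast showing the antibodies with MATalpha yeast showing the peptide. Binding brings cells together so that they mate, and sequencing counts the barcode pairs among the diploids. Scores were corrected for input abundance and mapped to Kd with protein pairs of known affinity run in the same pool. Mating was done six times.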

Each variant is given by its three heavy chain CDRs, as the data file delimits them; those of the parent are GFTLNSYGIS, VIYSDGRRTFYGDSVK, GRAAGTFDS.
Numbers give log10(Kd / nM), so 0 is 1 nM and 3 is 1 µM. Smaller is tighter.
Averages over replicates are reported, and they cover detected replicates only.
An entry "not detected" has no value in the source: the pair was not observed among the diploids in any replicate. This suggests poor binding but is not conclusive.
The authors' rule: three or more of the six replicates give a measured affinity, fewer mean a poor binder.
The range of this assay differs from that of the first round, and the authors advise against merging the two.
The parent sequence was in this pool as ten entries: three were never detected, three once, and four in most replicates, with averages from 0.34 to 2.37.
Where one sequence has several entries in the source, the replicates are pooled.
Nonspecific signal, from three strains lacking the peptide, appeared in 1% of pairings of all heavy chain designs, centred on 2.08 (5% of these signals below 0.84); values are not corrected for it.

CDR-H1	CDR-H2	CDR-H3	log10 Kd (nM), mean	replicates with signal
GFTLNSYGIS	VIYSDGRRTFYSDSVK	GMAGGTFDQ	-0.08	6 of 6
GFDLNEYGIS	VIYADGRRTFYADSVK	GKAAGTFDI	-0.09	4 of 6
GFSLNSYGIS	VIYSDGRRTAYGDSVK	GRNAGTFDS	-0.15	6 of 6
GFDLLEYGIS	VIYADGMRVAYAKDVK	GMEGQFVVD	not detected	0 of 6
GFSLNSYGIS	VIYSDGRRTFYSDSVK	GRAAGTFDS	0.18	12 of 12
GFTLNEYGIS	VIYSDGRRTFYADSVK	GRAGGTFDS	0.45	6 of 6
GFQLNSYGIS	VIYSDGQRTFYGDSVK	GRAAGTFDS	1.64	6 of 6
GFDLNSYGIS	VIYSDGRRTFYADSVK	GNAAGTFDA	0.43	6 of 6
GFDLNEYGIS	VIYADGMRTAYADDVK	GSNAGTFDQ	-0.37	6 of 6
GFDLNMYGIS	VIYSDGRRTFYGDSVK	GQTAGTFDS	0.41	6 of 6
MFDLNSYGIS	VIYSDGRRTFYGDSVK	GKQAGTFDS	1.16	1 of 6
GFTLNSYGIS	VIYSDGMRTFYGDSVK	GRVAGTFDS	0.91	5 of 6
GFDLNEYGIS	VIYADGVRTFYTDSVK	GEVAGTFDQ	-0.25	6 of 6
GFTLNSYGIS	VIYSDGKRTFYGDNVK	GRTAGTFDS	1.33	3 of 6
GFTLDSYGIS	VLYSDGRRTFYGDSVK	GGAAGTALS	not detected	0 of 6
GFDFDEYGIS	VIYADGIRQFYQDKVK	GEVTGMFDT	not detected	0 of 6
MFDLNSYGIS	VIYSDGRRTFYTDSVK	GNAAGTFDS	1.26	6 of 6
GFDLNEYGIS	VIYADGRRTAYIDSVK	GEIAGTFNS	-0.59	6 of 6
GFTLNQYGIS	VIYSDGRRTFYGGSVK	GRAAGTFDS	0.99	1 of 6
GFDLNEYGIS	VIYADGMRTFYTDSVK	GTFAGTFDV	-0.68	6 of 6
GFDLDEYGIS	VIYADGKRTYYADSVK	GEVAGTFDV	-0.30	6 of 6
GFGLDEYGIS	VIYADGERRSYVDNVK	GFDGEKGIV	not detected	0 of 6
GFTLNSYGIS	VIYSDGRRTFYSDSVK	GRADGTFDS	2.22	1 of 6
GFTLNEYGIS	VIYSDGRRTFYSDSVK	GRAGGTFDS	0.31	6 of 6
GFDINEYGIS	VIFADGMRTAYLNSVK	GQMAGFFIM	not detected	0 of 6
GFELNSYGIS	VIYSDGRRTFYGDSVK	GSTAGTFDF	0.32	6 of 6
GFSLDEYGIS	VIYADGMRNAYTADVK	GGKSEDFFT	not detected	0 of 6
GFTLNEYGIS	VIYSDGRRTFYHDDVK	GRTAGTFDS	1.54	6 of 6
GFDLNSYGIS	VIYSDGRRTFYGDSVK	GNAAGTFDS	0.46	6 of 6
GFTLDSYGIS	VIYSDGRRTFYGDSVK	GRTAGTFDA	0.38	6 of 6
GFDLNEYGIS	VIYADGVRTQYIDSVK	GEIAGTFDS	-0.31	6 of 6
GFTLNEYGIS	VIYSDGRRTFYHDSVK	GREAGTFDV	-0.13	6 of 6
GFSLNSYGIS	VIYSDGRRTFYGDDVK	GSAAGTFDS	0.31	6 of 6
GFDLNEYGIS	VIYADGRRTSYADSVK	GNQAGTFDV	0.17	6 of 6
MFDLNSYGIS	VIYSDGRRTFYGDSVK	GNAAGTFDS	1.36	2 of 6
GFTHNDYGIS	VIYSDGRRTFYGDSVK	NRAALTFIS	not detected	0 of 6
GFDLEKYGIS	VIYADGIRKEYDQSVK	GQNAGAFTI	2.67	1 of 6
GFNLDEQGIS	VIYADGVRCSYAQSVK	GKSSGFIDV	1.83	1 of 6
GFTLNSYGIS	VIYSDGRRTFYGDSVV	GRPAGTFDY	not detected	0 of 6
GFDLNEMGIS	VIYADGRRVEYNDKVK	GMLTGTFDQ	2.76	1 of 6
GFDLDEYGIS	VIYADGKRTAYADNVK	GNQAGTFDV	-0.37	6 of 6
GFDLNEYGIS	VIYADGRRTFYSDSVK	GEAGGTFDL	0.01	6 of 6
GITLDSYGWS	VIYSCGRRTFYGDSVK	GRLAGTALS	not detected	0 of 6
GFTLNSYGIS	VIYADGRRTPYGDSVK	GRALGTNKS	not detected	0 of 6
GFDLNEYGIS	VIYADGKRTFYADSVK	GEVAGTFVQ	-0.10	6 of 6
FKTLDSYGGS	VIYSDGRRTFYGDSVK	GRAAGTALS	not detected	0 of 6
GFELNEYGIS	VIYSDGRRTFYGDSVK	GEAAGTFDT	0.65	6 of 6
GFDLNSYGIS	VIYSDGRRTFYGDSVK	GRTAGTFVS	0.28	1 of 6
GFTLNSYGIS	VIYSDGRRTFYADNVK	GQEAGTFDS	0.32	6 of 6
GFSLNSYGIS	VIYSDGRRTFYIDSVK	GTAAGTFDS	0.61	6 of 6
QDTLNSYGIS	VIYSDGRRTFYEDSVK	GRAAATFDS	not detected	0 of 6
GFDLNSYGIS	VIYSDGRRTVYGDAVK	GREAGTFDS	0.10	5 of 6

A selection of 3 entries from above:

CDR-H1	CDR-H2	CDR-H3	log10 Kd (nM), mean	replicates with signal
GFDLNEYGIS	VIYADGKRTFYADSVK	GEVAGTFVQ	-0.10	6 of 6
GFTLNSYGIS	VIYSDGRRTFYADNVK	GQEAGTFDS	0.32	6 of 6
GFDLNEYGIS	VIYADGMRTAYADDVK	GSNAGTFDQ	-0.37	6 of 6